# Binding of CDR-mutated scFvs to a peptide of the spike HR2 region

The target is the same throughout: PDVDLGDISGINAS, from the HR2 region of SARS-CoV-2 spike.

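The parent was found by panning a naive human phage display library on the peptide. The library (AAYL49) carries one to three amino acid substitutions per variant, with no insertions or deletions. The assay is AlphaSeq: two haploid yeast populations carry antibody and antigen on their surface. Binding brings cells together so that they mate, and sequencing counts the barcode pairs among the diploids. Scores were corrected for input abundance and mapped to Kd with protein pairs of known affinity run in the same pool. Mating was done three times.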

Parent: Ab-14, a human scFv built as VH, the linker GGGGSGGGGSGGGGS, VL. Only the CDRs of the heavy chain vary.
VH: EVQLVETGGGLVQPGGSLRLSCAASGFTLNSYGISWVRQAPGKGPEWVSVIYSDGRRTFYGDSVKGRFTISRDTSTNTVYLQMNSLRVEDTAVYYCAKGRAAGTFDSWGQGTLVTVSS
VL: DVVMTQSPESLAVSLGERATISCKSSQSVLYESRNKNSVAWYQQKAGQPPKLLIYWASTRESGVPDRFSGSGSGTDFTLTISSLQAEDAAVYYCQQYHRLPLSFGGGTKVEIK

Changes read parent residue, position, new residue, counted from the first residue of the VH shown.
All variants listed here change L29 of the VH, counted from its first residue.
Kd is apparent (estimated from mating counts) and averaged on the log scale over replicates with a signal. Smaller is tighter.
A pair that was not seen in any replicate is written "no signal"; this usually means weak binding, but a binder can also be missed.
Entries are sorted by rising average, undetected variants last.
For reference, the parent read 4.4 nM as the reference entry and 13 µM (one replicate of three) as a member of this library.

The variant T28A L29G S35D gave 5.1 nM (3 of 3 replicates).
The variant L29T S53A S107V gave 18 nM (3 of 3 replicates).
The variant L29V gave 170 nM (2 of 3 replicates).
The variant L29I G61R S63K gave 310 nM (3 of 3 replicates).
The variant F27L L29E F59C gave 520 nM (1 of 3 replicates).
The variant L29F T58C G99T gave 1.7 µM (1 of 3 replicates).
The variant L29C gave 2.1 µM (1 of 3 replicates).
The variant L29E A102R G103N gave 2.9 µM (1 of 3 replicates).
The variant L29F D106T gave 3.2 µM (1 of 3 replicates).
The variant L29T gave 3.4 µM (2 of 3 replicates).
The variant L29G S35G gave 3.6 µM (2 of 3 replicates).
The variant L29W R100D S107L gave 4.4 µM (1 of 3 replicates).
The variant L29A D54C R56H gave 8.9 µM (1 of 3 replicates).
The variant L29G I51D R56W gave 12 µM (2 of 3 replicates).
The variant L29H G33Q S53Q gave 13 µM (1 of 3 replicates).
The variant L29A R56D Y60H gave 18 µM (1 of 3 replicates).
The variant L29M Y60D K65D gave 20 µM (2 of 3 replicates).
The variant L29T I34G Y60R gave 33 µM (2 of 3 replicates).
The variant L29A G55P G61T gave 47 µM (3 of 3 replicates).
The variant L29G I51Q Y52R gave 50 µM (2 of 3 replicates).
The variant L29G I51C Y60W gave 60 µM (1 of 3 replicates).
The variant L29P G55D R56S gave 70 µM (1 of 3 replicates).
The variant L29V R56E G103H gave 100 µM (1 of 3 replicates).
The variant L29H S35F T58N gave 180 µM (1 of 3 replicates).
The variant L29Q S53N F59D gave 220 µM (2 of 3 replicates).
The variant L29G Y32C D106R gave 260 µM (3 of 3 replicates).
The variant L29S R56N S107Q gave 660 µM (1 of 3 replicates).
The variant L29T V64T F105C gave no signal (0 of 3 replicates).
The variant L29R G33P A101N gave no signal (0 of 3 replicates).
The variant F27T L29E G61T gave no signal (0 of 3 replicates).
The variant G26T L29M Y32N gave no signal (0 of 3 replicates).
The variant L29V Y32S R57F gave no signal (0 of 3 replicates).
The variant L29R V50W K65W gave no signal (0 of 3 replicates).
The variant G26M L29M S35M gave no signal (0 of 3 replicates).
The variant L29H G61P gave no signal (0 of 3 replicates).
The variant L29N R56K gave no signal (0 of 3 replicates).
The variant L29H K65H R100C gave no signal (0 of 3 replicates).
The variant L29E N30P R57A gave no signal (0 of 3 replicates).
The variant F27K L29S D106K gave no signal (0 of 3 replicates).
The variant L29M D62Y K65W gave no signal (0 of 3 replicates).
The variant L29N G99C gave no signal (0 of 3 replicates).
The variant F27L L29Q R56V gave no signal (0 of 3 replicates).
The variant L29D Y32D S63N gave no signal (0 of 3 replicates).
The variant T28V L29S I51C gave no signal (0 of 3 replicates).
The variant L29K R56A K65H gave no signal (0 of 3 replicates).
The variant L29K S31F gave no signal (0 of 3 replicates).

For reference, 5 entries of the list once more:

changes	Kd (apparent)	detected
L29V Y32S R57F	no signal	0/3
T28A L29G S35D	5.1 nM	3/3
G26M L29M S35M	no signal	0/3
L29G I51C Y60W	60 µM	1/3
L29W R100D S107L	4.4 µM	1/3

Empty control strains, which show no peptide, gave a signal in 15% of pairings with library AAYL49; the median was 11 µM and 95% of these signals were weaker than 680 nM. No background was subtracted.

Data: MIT Lincoln Laboratory AlphaSeq set, Engelhart et al. 2022, doi:10.1038/s41597-022-01779-4, as distributed in FLAb.